Test results from ChEMBL document CHEMBL1135762, “Chiral N,N-disubstituted trifluoro-3-amino-2-propanols are potent inhibitors of cholesteryl ester transfer protein” (J Med Chem, 2002).

Biological target: T1, Cholesteryl ester transfer protein (Homo sapiens, UniProt P11597)
T1 sequence (P11597 whole entry): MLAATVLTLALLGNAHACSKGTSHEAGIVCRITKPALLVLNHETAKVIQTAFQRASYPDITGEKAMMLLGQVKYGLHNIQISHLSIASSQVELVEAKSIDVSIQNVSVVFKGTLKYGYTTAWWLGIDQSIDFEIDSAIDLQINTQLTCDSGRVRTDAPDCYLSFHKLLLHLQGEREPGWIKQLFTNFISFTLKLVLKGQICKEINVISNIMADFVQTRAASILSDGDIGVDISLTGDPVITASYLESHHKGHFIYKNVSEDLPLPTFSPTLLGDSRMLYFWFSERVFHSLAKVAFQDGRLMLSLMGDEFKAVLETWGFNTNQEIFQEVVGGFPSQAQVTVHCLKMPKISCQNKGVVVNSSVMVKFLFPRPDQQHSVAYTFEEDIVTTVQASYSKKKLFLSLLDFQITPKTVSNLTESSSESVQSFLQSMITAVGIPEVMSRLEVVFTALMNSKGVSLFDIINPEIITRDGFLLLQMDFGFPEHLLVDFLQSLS
Assay: Concentration required for 50% Inhibition against Cholesteryl ester transfer protein in presence of human serum

OC(CN(Cc1cccc(OC(F)(F)F)c1)c1cccc(OC(F)(F)F)c1)C(F)(F)F (stereo unspecified)
IC50: 46 µM
